# Data reported in patent EP0017102A1, “Composition containing a phenyl benzoic acid compound and acetaminophen combination for the treatment of pain and inflammation and process for preparing the same” (Merck & Co., Inc., priority 1979, dated 1980).
# Assay: in vivo
# Design: species or system mice
# Settings: mouse, po
# Procedure: Measurements of the relative safety of the components and of the combination were carried out using acute oral toxicity studies in female mice. Randomly selected female albino mice (Carworth CF-1) weighing from 18 to 24 grams, and 6 to 7 weeks old, were used. The LD50 value for each drug was estimated from acute oral dose-response curves previously established. The following dose regimen was utilized:
# Both drugs were prepared as suspensions in 1% aqueous methylcellulose (100 cps.), diflunisal as a 2% concentration and acetaminophen as a 5% concentration. The preparations were administered by gastric intubation using a metal catheter attached to a springe. The various doses were administered randomly with 20 mice per group. Food was withheld one to two hours before and three hours following drug treatment. Water was available at all times. When the two drugs were administered,diflunisal was always given first. The surviving mice were observed closely on the day of treatment and daily thereafter for a total test period of 14 days. Body weights were taken pretest and on days 7 and 14.
compound,measurement,value
"O=C(O)c1cc(-c2ccc(F)cc2F)ccc1O [Diflunisal, 2-hydroxy-5-(2',4'-difluorophenyl)benzoic acid]",LD50,400 mg/kg
